In patent US5026699A, “Use of 5,11-dihydro-6H-pyrido[2,3-b][1,4]-benzodiazepin-6-ones substituted in the 11-position for treating bradycardia and bradyarrhythmia in human and veterinary medicine” (Dr. Karl Thomae GmbH, priority 1988, dated 1991):

Molecular target: muscarinic receptors, cerebral cortex
Assay: Receptor binding test in vitro, 3H-NMS displacement, cerebral cortex homogenate
Settings: rat cerebral cortex homogenate 1:3000; 0.3 nanomolar 3H-NMS; 30° C., 45 minutes; read-out: Receptor Binding Tests IC50, Cortex

CCN(CC)CC1CCCCN1CC(=O)N1c2ccccc2C(=O)Nc2cccnc21 (stereo not shown) [C, 11-[[2-[(diethylamino)methyl]-1-piperidinyl]acetyl]-5,11-dihydro-6H-pyrido[2,3-b][1,4]benzodiazepin-6-one, reference compound]
IC50: 1.2 µM
